Laboratory results reported in article PMC4154654 (PLoS Neglected Tropical Diseases, 2014).

Tested on: T84 cell monolayers
Assay: Barrier function assay (FITC-dextran flux) in T84 cell monolayers
Details: 24-h treatment, 20 µM and 200 µM

O=C(O)Cc1ccccc1Nc1c(Cl)cccc1Cl [diclofenac]
effect on FITC-dextran flux across T84 cell monolayers: did not change
